Measurements as given in patent publication US12048700B2, “Crystalline monosodium salt of 5-methyl-(6S)-tetrahydrofolic acid” (Merck Patent GmbH, priority 2017, dated 2024).
Where two headings read alike, the source gives them in different places.

Assays:
[1] = for time the solution remains clear: r.t.; for kinetic solubility in water: room temperature, purified/de-ionized water, vigorously agitated and briefly sonicated, monosodium salt
Protocol: 2.535 ml of purified/de-ionized water (for instance water for chromatography) is added to the solid using an adjustable volumetric pipette. The mixture is vigorously agitated at room temperature and briefly sonicated.

physchem = conditions: water, thermodynamic from solid, room temperature, suspension stirred 30 minutes with excess solid
[2] = 25° C./60% rh
Protocol: (§1) The content of 5-methyl-(6S)-tetrahydrofolic acid remaining in the samples was measured by HPLC at periodic intervals (% w/w). The content of 5-methyl-(6S)-tetrahydrofolic acid remaining was also compared to the initial value at the time of preparation (% rel.). Additionally the content of the pyrazino-s-triazine derivative of 4α-hydroxy-5-methyl-THF (MeFox), a major degradation product, was measured by HPLC at periodic intervals and disclosed as absolute values (% w/w).

[3] = 40° C./75% rh
Protocol: as §1, with “sample” for “samples”

CN1c2c(nc(N)[nH]c2=O)NC[C@@H]1CNc1ccc(C(=O)N[C@@H](CCC(=O)[O-])C(=O)O)cc1.[Na+] [5-methyl-(6S)-tetrahydrofolic acid monosodium salt]
time the solution remains clear ([1]; 23.8 mg in 2.38 ml water): more than 20 hours
time the solution remains clear ([1]; 62.3 mg in 4.15 ml water): several hours
kinetic solubility in water ([1]; listed as crystalline 5-methyl-(6S)-tetrahydrofolic acid monosodium salt): greater than 10 mg per 1 ml of water
kinetic solubility in water ([1]; listed as crystalline MTHF monosodium salt): greater than 25 mg per 1 ml of water
kinetic solubility in water ([1]; listed as crystalline monosodium salt): greater than 15 mg per 1 ml of water
solubility at 30 min (physchem; solubility in water expressed as equivalent of the calcium salt): 9600 µg/mL
solubility at 30 min (physchem; solubility in water): 9300 µg/mL

CN1c2c([nH]c(N)nc2=O)NC[C@@H]1CNc1ccc(C(=O)N[C@@H](CCC(=O)[O-])C(=O)[O-])cc1.[Ca+2] [calcium salt of 5-methyl-(6S)-tetrahydrofolic acid]
5-methyl-(6S)-tetrahydrofolic acid remaining relative to initial value ([2]; 0 months): 100.0 % rel.
Pyrazino-s-triazine derivative of 4α-hydroxy-5-methyl-THF (MeFox), major degradation product ([2]; 0 months): 0.20 % w/w
5-methyl-(6S)-tetrahydrofolic acid remaining relative to initial value ([2]; 3 months): 97.9 % rel.
Pyrazino-s-triazine derivative of 4α-hydroxy-5-methyl-THF (MeFox), major degradation product ([2]; 3 months): 0.84 % w/w
5-methyl-(6S)-tetrahydrofolic acid remaining relative to initial value ([2]; 6 months): 96.3 % rel.
Pyrazino-s-triazine derivative of 4α-hydroxy-5-methyl-THF (MeFox), major degradation product ([2]; 6 months): 0.90 % w/w
5-methyl-(6S)-tetrahydrofolic acid remaining relative to initial value ([2]; 9 months): 97.3 % rel.
Pyrazino-s-triazine derivative of 4α-hydroxy-5-methyl-THF (MeFox), major degradation product ([2]; 9 months): 0.85 % w/w
5-methyl-(6S)-tetrahydrofolic acid remaining relative to initial value ([2]; 12 months): 96.5 % rel.
Pyrazino-s-triazine derivative of 4α-hydroxy-5-methyl-THF (MeFox), major degradation product ([2]; 12 months): 0.86 % w/w
5-methyl-(6S)-tetrahydrofolic acid remaining relative to initial value ([3]; 0 months): 100.0 % rel.
Pyrazino-s-triazine derivative of 4α-hydroxy-5-methyl-THF (MeFox), major degradation product ([3]; 0 months): 0.20 % w/w
5-methyl-(6S)-tetrahydrofolic acid remaining relative to initial value ([3]; 3 months): 97.2 % rel.
Pyrazino-s-triazine derivative of 4α-hydroxy-5-methyl-THF (MeFox), major degradation product ([3]; 3 months): 1.01 % w/w
5-methyl-(6S)-tetrahydrofolic acid remaining relative to initial value ([3]; 6 months): 96.6 % rel.
Pyrazino-s-triazine derivative of 4α-hydroxy-5-methyl-THF (MeFox), major degradation product ([3]; 6 months): 0.96 % w/w
5-methyl-(6S)-tetrahydrofolic acid remaining relative to initial value ([3]; 9 months): 97.6 % rel.
Pyrazino-s-triazine derivative of 4α-hydroxy-5-methyl-THF (MeFox), major degradation product ([3]; 9 months): 0.93 % w/w
5-methyl-(6S)-tetrahydrofolic acid remaining relative to initial value ([3]; 12 months): 96.3 % rel.
Pyrazino-s-triazine derivative of 4α-hydroxy-5-methyl-THF (MeFox), major degradation product ([3]; 12 months): 0.95 % w/w
